Results published in ChEMBL document CHEMBL3407483, “Novel 3-nitrotriazole-based amides and carbinols as bifunctional antichagasic agents” (J Med Chem, 2015).

Assays:
[1] = system: Trypanosoma cruzi; assay: Activity of his-tagged recombinant Trypanosoma cruzi type-1 nitroreductase assessed as oxidized NADH level per mg of protein after 5 mins by absorption spectrum analysis relative to benznidazole
[2] = system: Trypanosoma brucei; assay: Activity of his-tagged recombinant Trypanosoma brucei type-1 nitroreductase assessed as oxidized NADH level per mg of protein after 5 mins by absorption spectrum analysis relative to benznidazole
[3] = Ratio for his-tagged recombinant Trypanosoma brucei type-1 nitroreductase activity over his-tagged recombinant Trypanosoma cruzi type-1 nitroreductase activity

O=[N+]([O-])c1ncn(CC(O)(Cn2cncn2)c2ccc(-c3ccccc3)cc2)n1 (configuration not stated)
2: fold change (FC) [1] | fold change (FC) [2] | Ratio [3]

N#Cc1ccc(-c2ccc(NC(=O)Cn3cnc([N+](=O)[O-])n3)cc2)cc1
2: fold change (FC) [1] | fold change (FC) [2] | Ratio [3]

CC(O)(Cn1cnc([N+](=O)[O-])n1)c1ccc(-n2ccnc2)cc1 (configuration not stated)
2: fold change (FC) [1] | fold change (FC) [2] | Ratio [3]

O=[N+]([O-])c1ncn(CC(O)(Cn2cncn2)c2ccc(F)cc2F)n1 (configuration not stated)
2: fold change (FC) [1] | fold change (FC) [2] | Ratio [3]
